# Antibody variant affinities, Ab-91 heavy chain, assay 2

Antigen: PDVDLGDISGINAS, a 14-residue peptide of the SARS-CoV-2 spike HR2 region.

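The starting antibody came from a phage panning campaign against this peptide. In library AAYL51, one, two or three CDR residues were substituted; doubles and triples were drawn at random. AlphaSeq pools MATa yeast showing the antibodies with MATalpha yeast showing the peptide. Mating (16 h, 30 °C) was followed by selection of diploids and sequencing of their barcodes. A regression on co-assayed BCL2-family reference pairs converts the normalised counts of each replicate to an apparent Kd. Each pool was mated in three replicate cultures.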

Ab-91 is the parent antibody, in scFv form: VL, then the linker GGGGSGGGGSGGGGS, then VH. The light chain is unchanged in all variants.
VL: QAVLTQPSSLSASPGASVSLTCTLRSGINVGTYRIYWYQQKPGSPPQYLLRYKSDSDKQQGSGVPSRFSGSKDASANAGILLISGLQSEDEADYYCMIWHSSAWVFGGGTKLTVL
VH: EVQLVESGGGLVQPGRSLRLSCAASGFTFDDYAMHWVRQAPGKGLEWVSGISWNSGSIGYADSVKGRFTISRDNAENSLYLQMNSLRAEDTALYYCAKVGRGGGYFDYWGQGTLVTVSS

Changes read parent residue, position, new residue, counted from the first residue of the VH shown.
Every variant below is changed at Y32 of the VH (sequential numbering).
Numbers give log10(Kd / nM), so 0 is 1 nM and 3 is 1 µM. Smaller is tighter.
Averages over replicates are reported, and they cover detected replicates only.
"no signal" marks a missing value. The strain was present, yet no cells mated with the target were sequenced in any replicate, which points to weak or no binding.

The variant Y32W+N54Y+F106S showed 3.50 (1 of 3 replicates). For D30P+Y32G+M34E, the assay gave 4.51 (2 of 3 replicates). For Y32I+V64N+G104Q, the assay gave 3.95 (1 of 3 replicates). For Y32T+M34H+N54Y, the assay gave 4.76 (1 of 3 replicates). The variant Y32D showed no signal (0 of 3 replicates). With F27I+Y32P+S55R the result was 5.04 (1 of 3 replicates). For F29E+Y32I+S52Q, the assay gave 3.87 (2 of 3 replicates). For D31R+Y32A+G50H, the assay gave 4.30 (1 of 3 replicates).

The variant G26H+Y32A+S63T gave 3.31 (2 of 3 replicates). The variant Y32L+G103M+G104D gave 5.27 (3 of 3 replicates). For Y32M+A33Y+S63I, the assay gave 2.78 (3 of 3 replicates). The variant Y32E+S57H showed 4.69 (1 of 3 replicates). The variant T28H+Y32I+G59W showed no signal (0 of 3 replicates). With Y32H+N54I+G56H the result was no signal (0 of 3 replicates). With Y32T+G102K+G103E the result was no signal (0 of 3 replicates). With Y32A+I51G+Y60E the result was no signal (0 of 3 replicates).

With Y32G+A33D+S57D the result was 4.42 (2 of 3 replicates). For D30C+Y32D+Y105N, the assay gave 5.28 (2 of 3 replicates). The variant Y32G+K65W+G100N showed 3.97 (1 of 3 replicates). With Y32A+S63Q+D107W the result was no signal (0 of 3 replicates). With Y32I+S63E+G102L the result was 4.14 (2 of 3 replicates). The variant Y32N+G100I+G102L gave no signal (0 of 3 replicates). With D30Y+D31H+Y32A the result was 1.36 (3 of 3 replicates). The variant Y32M+V64P gave 4.97 (1 of 3 replicates).

The variant F29E+Y32C+A33F gave no signal (0 of 3 replicates). With Y32A+I58R+G100K the result was 2.32 (3 of 3 replicates). With T28K+Y32T+S63W the result was 0.45 (3 of 3 replicates). With Y32N+G50W the result was no signal (0 of 3 replicates). The variant Y32V+S63F+Y108F gave no signal (0 of 3 replicates). For Y32E+M34T+Y108K, the assay gave no signal (0 of 3 replicates). The variant Y32G+A33W+G102H gave no signal (0 of 3 replicates). The variant Y32Q+H35V showed no signal (0 of 3 replicates).

With Y32N+G56Y+G103L the result was 4.57 (1 of 3 replicates). With Y32F+S55Q+S63C the result was no signal (0 of 3 replicates). For Y32M+D62M+G104P, the assay gave 4.57 (2 of 3 replicates). For D30F+Y32M+A33M, the assay gave no signal (0 of 3 replicates). With D31E+Y32F+S55P the result was 1.79 (3 of 3 replicates). The variant Y32F+H35V+S52M gave 5.12 (1 of 3 replicates). For Y32G+A33C+G104Y, the assay gave 6.25 (1 of 3 replicates). The variant Y32W+I51T+S57K showed 3.62 (1 of 3 replicates).

The variant Y32K+G103A+F106H showed no signal (0 of 3 replicates). The variant F27R+T28G+Y32P showed 4.07 (1 of 3 replicates). With Y32R+Y60F+Y108S the result was no signal (0 of 3 replicates). For Y32S+G59M+D62R, the assay gave no signal (0 of 3 replicates). The variant Y32Q+A61F+S63G gave 3.86 (1 of 3 replicates). The variant Y32E+V64M+R101P gave 5.37 (3 of 3 replicates). The variant Y32F+Y105M gave 3.10 (3 of 3 replicates). The variant Y32Q+G56W+G104Q showed no signal (0 of 3 replicates).

For F29M+Y32K+I58A, the assay gave 5.38 (2 of 3 replicates). The variant Y32E+H35A+V99D showed 4.29 (1 of 3 replicates). The variant Y32M+G50K showed 4.36 (2 of 3 replicates). For Y32P+A33W+G56K, the assay gave no signal (0 of 3 replicates).

3 of these entries, quoted again:

changes	mean, log10 nM	detected
Y32I+S63E+G102L	4.14	2 of 3
Y32L+G103M+G104D	5.27	3 of 3
Y32F+H35V+S52M	5.12	1 of 3

Empty control strains, which show no peptide, gave a signal in 21% of pairings with library AAYL51; the median was 4.54 and 95% of these signals were weaker than 3.26. No background was subtracted.
For reference, the parent read 1.86 as the reference entry and 0.88 as a member of this library.

From the AlphaSeq antibody data of Engelhart et al. 2022 (doi:10.1038/s41597-022-01779-4), copy in the FLAb collection.